The text below walks through data of patent US7501425B1, “Bicyclic pyrimidines and bicyclic 3,4-dihydropyprimidines as inhibitors of cellular proliferation” (Warner Lambert Company, priority 1999, dated 2009).

Chains of the proteins cited; added tags and fusions are not shown. Residues count along the entry.
UniProt P11362, 478-767 limits assumed: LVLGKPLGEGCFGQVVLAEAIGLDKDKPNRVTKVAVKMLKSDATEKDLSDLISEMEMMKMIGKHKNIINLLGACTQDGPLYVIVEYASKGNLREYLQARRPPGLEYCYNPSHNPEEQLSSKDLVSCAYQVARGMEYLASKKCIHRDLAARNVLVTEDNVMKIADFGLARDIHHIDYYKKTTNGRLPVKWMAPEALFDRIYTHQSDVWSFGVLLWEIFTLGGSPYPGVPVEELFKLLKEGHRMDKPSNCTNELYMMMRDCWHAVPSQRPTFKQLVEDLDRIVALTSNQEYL
UniProt P05622, 599-961 limits assumed: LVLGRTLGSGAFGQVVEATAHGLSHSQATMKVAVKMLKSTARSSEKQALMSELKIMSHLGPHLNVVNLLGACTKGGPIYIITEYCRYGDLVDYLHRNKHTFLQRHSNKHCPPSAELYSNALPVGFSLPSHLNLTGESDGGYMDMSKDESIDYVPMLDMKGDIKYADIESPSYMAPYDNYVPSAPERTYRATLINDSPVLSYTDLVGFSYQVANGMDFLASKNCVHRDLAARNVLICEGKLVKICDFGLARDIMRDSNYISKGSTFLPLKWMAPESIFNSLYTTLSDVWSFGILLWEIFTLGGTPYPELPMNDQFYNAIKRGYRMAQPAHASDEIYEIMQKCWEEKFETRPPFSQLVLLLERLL

Experiment [1] deals with T1, FGF-1 (flg) receptor tyrosine kinase (Homo sapiens, UniProt P11362).
T1 construct: amplify a fragment of DNA that codes for the intracellular tyrosine kinase domain; made in house; host or cells: SF9 insect cells (baculovirus)
Briefly: FGF receptor tyrosine kinase assay. The experiment is classed as biochemical. As to conditions: read-out: FGF IC50; intracellular tyrosine kinase domain, SF9 lysate. The procedure:
(§1) The assays used to determine these activities were carried out as follows:
(§2) PDGF and FGF Receptor Tyrosine Kinase Assays
(§3) PCR primers were designed to amplify a fragment of DNA that codes for the intracellular tyrosine kinase domain. The fragment was inserted into a baculovirus vector, cotransfected with AcMNPV DNA, and the recombinant virus isolated. SF9 insect cells were infected with the virus to overexpress the protein, and the cell lysate was used for the assay. Assays were performed in 96-well plates (100 μL/incubation/well), and conditions were optimized to measure the incorporation of ^32P from γ^32P-ATP into a glutamate-tyrosine co-polymer substrate. Briefly, to each well was added 82.5 μL of incubation buffer containing 25 mM Hepes (pH 7.0), 150 mM NaCl, 0.1% Triton X-100, 0.2 mM PMSF, 0.2 mM Na3VO4, 10 mM MnCl2, and 750 μg/mL of Poly (4:1) glutamate-tyrosine followed by 2.5 μL of inhibitor and 5 μL of enzyme lysate (7.5 μg/μL FGF-TK or 6.0 μg/μL PDGF-TK) to initiate the reaction. Following a 10 minute incubation at 25° C., […] of γ^32P-ATP (0.4 μCi plus 50 μM ATP) was added to each well, and samples were incubated for an additional 10 minutes at 25° C. […] Nonspecific activity was defined as radioactivity retained on the filters following incubation of samples with buffer alone (no enzyme). […]

Experiment [2] deals with T2, PDGF-β receptor tyrosine kinase (Mus musculus, UniProt P05622).
T2 construct: amplify a fragment of DNA that codes for the intracellular tyrosine kinase domain; made in house; host or cells: SF9 insect cells (baculovirus)
As to the kind of experiment: PDGF receptor tyrosine kinase assay. It counts as biochemical. Particulars: read-out: PDGF IC50; intracellular tyrosine kinase domain, SF9 lysate. The procedure: as §1, §2, §3

As a reminder, the IC50 is the concentration that inhibits the measured activity by half. `CCN(CC)CCOc1ccc(Nc2ncc3c(=O)n(Cc4ccc(OC)cc4)c(=O)n(C(C)C)c3n2)cc1` [Example 74]: the half-inhibitory concentration (IC50) in experiment [1] and in experiment [2] was over 50 µM in each case.
